Literature values in publication PMC7496931, “Activation of Sirtuin 2 Inhibitors Employing Photoswitchable Geometry and Aqueous Solubility” (Chemmedchem, 2020).

Test system: Sirt2
Design: method as in PMID 26982234
Details: read-out: Sirt2 inhibition, IC50 (originally published value); cited from earlier work

NC(=O)c1cncc(OCc2cccc(NC(=O)c3ccc(OCc4ccccc4)cc3)c2)c1 [2 (R=OBn)]
IC50: 0.1 µM
